The assay concerns WT1-C1498 cells. Details: species or system C57BL/6 mice. The settings on record: mouse, in vivo.

“Arg Met Phe Pro Asn Ala Pro Tyr Leu [WT1 peptide]”: the “day on which all of the mice were dead” value turned out to be 58 days and the “disease free survival rate” value is given as 0%.

Values taken from patent US20050002951A1, “Novel method of inducing antigen-specific t cells” (priority 2001, published 2005).
